Measured values taken from publication PMC4516653 (European journal of pharmaceutical sciences : official …, 2015).
pIC50: −log10 of the molar value.

The chains behind the UniProt entries cited, without tags or fusion partners.
UniProt P33261, whole entry: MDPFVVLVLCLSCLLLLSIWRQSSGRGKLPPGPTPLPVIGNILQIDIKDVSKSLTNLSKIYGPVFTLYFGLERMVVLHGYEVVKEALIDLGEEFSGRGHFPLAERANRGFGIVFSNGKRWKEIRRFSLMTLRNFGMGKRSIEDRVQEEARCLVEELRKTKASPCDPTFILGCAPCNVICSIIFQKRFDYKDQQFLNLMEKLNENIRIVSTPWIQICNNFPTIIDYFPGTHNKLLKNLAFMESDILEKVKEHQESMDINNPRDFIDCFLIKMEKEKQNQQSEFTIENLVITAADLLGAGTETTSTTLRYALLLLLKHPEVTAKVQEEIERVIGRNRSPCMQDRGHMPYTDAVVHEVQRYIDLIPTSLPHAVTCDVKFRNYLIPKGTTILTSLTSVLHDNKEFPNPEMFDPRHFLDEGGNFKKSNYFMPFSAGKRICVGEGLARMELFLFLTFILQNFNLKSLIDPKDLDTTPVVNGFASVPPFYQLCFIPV

Molecular target: CYP2C19 (Homo sapiens, UniProt P33261)
Test: CYP inhibition assay in human liver microsomes
Type: in vitro ADME

pIC50: 4.66
SMILES: O=C(/C=C/C=C/c1ccc2c(c1)OCO2)N1CCCCC1 [Pip, piperine]
